This is an account of results in PubChem BioAssay AID2797 (The Scripps Research Institute Molecular Screening Center, 2010).

By UniProt entry, the sequences of proteins in these tests, tags left out.
UniProt P37288, whole entry, looked up: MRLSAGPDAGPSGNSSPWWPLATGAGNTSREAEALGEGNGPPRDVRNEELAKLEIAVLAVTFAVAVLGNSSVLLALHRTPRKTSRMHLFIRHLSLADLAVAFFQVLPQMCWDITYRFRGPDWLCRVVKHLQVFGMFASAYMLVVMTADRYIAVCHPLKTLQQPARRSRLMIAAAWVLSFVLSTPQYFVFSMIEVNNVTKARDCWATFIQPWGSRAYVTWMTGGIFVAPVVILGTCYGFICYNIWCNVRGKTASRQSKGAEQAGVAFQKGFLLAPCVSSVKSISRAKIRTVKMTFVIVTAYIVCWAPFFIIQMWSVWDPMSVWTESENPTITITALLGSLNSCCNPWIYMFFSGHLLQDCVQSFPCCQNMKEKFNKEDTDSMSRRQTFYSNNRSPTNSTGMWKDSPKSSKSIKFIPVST

The entries are a selection whose mix differs from that of the whole data set. Active and inactive are the calls of the source.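 How the source made its calls: active means activation above the mean activation of all tested compounds plus 3 SD, per screening run (cut at about 20% in these data); inactive means the rest.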

This assay has as its target Vasopressin V1a receptor (Homo sapiens) (UniProt P37288). As to the kind of experiment: V1R activation via calcium rise – fluorescence, CHO-V1R cells, counter-screen for OXTR agonist project, primary screen (AID 2797).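 Further: signal is peak over basal fluorescence ratio across a 100 second FLIPR read.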 As to conditions: Fluo-8 calcium fluorescence, agonist mode, at 3 µM, active compounds read high, 0% DMSO, 100% 3 nM vasopressin. Background: Counterscreens check selectivity or assay interference.
With `CC(C)C(=O)NC(Sc1ccccc1)C(Cl)(Cl)Cl` (stereo not given), the activation was inactive: 0.03%.

On to `O=P(Nc1nccs1)(c1ccccc1)c1ccccc1`, for which the activation is inactive: 0.44%.

In the case of `c1nnnn1CCn1cnnn1`, the activation is inactive: -0.27%.

On to `COc1ccc(C[C@H](C)NC[C@@H](O)c2ccc(O)c(NC=O)c2)cc1`, for which the activation was inactive: 0.9%.

As for `O=P(Nc1ccccn1)(c1ccc(Br)cc1)c1ccc(Br)cc1`, the activation is inactive: -0.53%.

`CN(C)C1(CNC(=O)c2ccc(Cl)c(S(N)(=O)=O)c2)CCCCC1`: the activation is inactive: -0.15%.

Turning to `C[C@H]1OP(=O)(Oc2ccccc2)[C@H](O)[C@H](O)[C@H]1N=[N+]=[N-]` (stereo not given in full), the activation is inactive: 0.92%.

Consider `O=P(Nc1nc2ccccc2s1)(c1ccccc1)c1ccccc1`, for which the activation is inactive: -1.12%.

As to `O=[As](O)(c1ccccc1)c1ccc(O)cc1`, the activation is inactive: 1.27%.

For the compound `O=[N+]([O-])c1ccc(O)c(/C=N/Nc2ccc([N+](=O)[O-])cc2[N+](=O)[O-])c1`, the activation is inactive: 5.99%.

Take `CC(=O)NC(SC(=S)N(C)C)C(Cl)(Cl)Cl` (stereo not given): the activation is inactive: -0.26%.

As for `O=[N+]([O-])c1ncn(CCn2cnc([N+](=O)[O-])n2)n1`, the activation was inactive: 0.09%.

With `O=C(OC1CN2CCC1CC2)c1cccc(Cl)c1` (stereo not given), the activation is inactive: 1.85%.

As for `Nc1ccc([As](=O)(O)c2ccc([N+](=O)[O-])cc2)cc1`, the activation is inactive: 0.31%.

As to `C(Cc1nn[nH]n1)Cc1nn[nH]n1`, the activation was inactive: 0.81%.

`Cc1ccc(NP(=O)(Oc2cccc(C)c2)Oc2cccc(C)c2)nc1`: the activation was inactive: 0.35%.

`CCOC(=O)NC(Sc1ccccc1)C(Cl)(Cl)Cl` (stereo not given): the activation was inactive: -0.22%.

`c1ccc(-c2nn[nH]n2)c(-c2nn[nH]n2)c1`: the activation is inactive: 1.98%.

Turning to `CCNC(=S)/N=C(\N)N[N+](=O)[O-]`, the activation is inactive: -0.11%.

For the compound `O=C(NC1CCS(=O)(=O)C1)NP(=S)(Oc1ccccc1)Oc1ccccc1` (stereo not given), the activation was inactive: 1.7%.

On to `CCC(=O)N1C2C3N(C(=O)CC)C1C1N(C(=O)CC)C(C(N1C(=O)CC)N3C(=O)CC)N2C(=O)CC`, for which the activation was inactive: 0.49%.

`O=C(OC1CN2CCC1CC2)c1ccccc1` (stereo not given): the activation was inactive: 0.93%.

As for `CC(=O)NC(SC(=S)N(CC(C)C)CC(C)C)C(Cl)(Cl)Cl` (stereo not given), the activation was inactive: 1.55%.

For the compound `Cc1ccc(OP(=O)(Nc2ccccn2)Oc2ccc(C)cc2)cc1`, the activation is inactive: 4.22%.

Turning to `COC(=O)c1cc2c(s1)N=C(c1ccccc1)N(C)P2(=O)N1CCOCC1` (stereo not given), the activation is inactive: 0.5%.

Regarding `CN(C)C(=O)Oc1noc2ccccc12`, the activation was inactive: -1.44%.

`Cc1ccccc1OP(=O)(Nc1ccccn1)Oc1ccccc1C`: the activation is inactive: 0.28%.

Regarding `CC(NC(=O)COC(=O)C(O)(c1ccccc1)c1ccccc1)c1ccccc1` (stereo not given), the activation is inactive: 5.05%.

With `CCOc1ccc(C2=NCC(CBr)S2)cc1` (stereo not given), the activation is inactive: 0.77%.

As to `O=P1(Nc2nc3ccc(Cl)cc3s2)COc2ccccc2O1` (stereo not given), the activation is inactive: 0.9%.

For the compound `CC(C)(C)C(=O)NC(Sc1ccccc1)C(Cl)(Cl)Cl` (stereo not given), the activation was inactive: -1.15%.

Regarding `C[C@@H]1C=CCP(=O)(Oc2ccccc2)O1` (stereo not given in full), the activation is inactive: -0.22%.

Consider `C[C@H]1OP(=O)(Oc2ccccc2)C[C@@H]2O[C@@H]21` (stereo not given in full), for which the activation was inactive: 0.58%.

As to `Cc1ccccc1CN(C)C(=O)COC(=O)C(O)(c1ccccc1)c1ccccc1`, the activation was inactive: 1.96%.

On to `CC(=O)c1ccc(N2CC2c2ccncc2)cc1` (stereo not given), for which the activation is inactive: 0.61%.

For the compound `CC(=O)Nc1ccc(Oc2c([N+](=O)[O-])cc([N+](=O)[O-])cc2[N+](=O)[O-])cc1`, the activation is inactive: -0.35%.

In the case of `CC(=O)Nc1ccc([As](=O)(O)O)c(O)c1`, the activation was inactive: 1.86%.

With `Cc1ccc(N/C(=N/P(=O)(N2CCOCC2)N2CCOCC2)N2CCOCC2)cc1`, the activation was inactive: -0.19%.

Regarding `CN(C(=O)Cc1ccc(Cl)c(Cl)c1)[C@H]1CCCC[C@H]1N1CCCC1`, the activation is inactive: 0.4%.

As to `NC(=O)c1cc([N+](=O)[O-])cc([N+](=O)[O-])c1N`, the activation is inactive: 0.49%.

Regarding `Clc1ccc(Cl)c(NC2=NCC(CBr)S2)c1` (stereo not given), the activation was inactive: 0.29%.

For the compound `CN1CCCC(OC(=O)C(c2ccccc2)c2ccccc2)C1` (stereo not given), the activation was inactive: 13%.

For `Cc1ccc(OP(=O)(Nc2nccs2)Oc2ccc(C)cc2)cc1`, the activation is inactive: -1.32%.

Turning to `COc1ccccc1OP(=O)(Nc1ccc(C)cn1)Oc1ccccc1OC`, the activation was inactive: -0.15%.

For the compound `Cc1c2non([O-])c-2c(C)[n+](=O)[n+]1[O-]`, the activation was inactive: 8.37%.

In the case of `O=C(NC(Sc1ccncn1)C(Cl)(Cl)Cl)c1ccccc1` (stereo not given), the activation is inactive: -0.18%.

As for `Oc1ccccc1CNc1ccccn1`, the activation is inactive: 0.63%.

As to `CC(C)CC(=O)NC(Sc1ccc(Cl)cc1)C(Cl)(Cl)Cl` (stereo not given), the activation was inactive: -1.23%.

With `Nc1cc(N)c2nonc2c1[N+](=O)[O-]`, the activation was inactive: 1.72%.

Regarding `O=P(Nc1nc2ccc(Cl)cc2s1)(c1ccccc1)c1ccccc1`, the activation was inactive: 0.28%.

Regarding `O=C(O)c1ccccc1[As](=O)(O)O`, the activation is inactive: 0.4%.

As for `CC(=O)Nc1ccc([As](=O)(O)O)cc1`, the activation is inactive: 0.35%.

On to `Cc1ccc(NP(=O)(Oc2ccccc2F)Oc2ccccc2F)nc1`, for which the activation is inactive: 0.28%.

As to `CN(C(=O)Cc1ccc(Cl)c(Cl)c1)[C@H]1CCCC[C@@H]1N1CCCC1`, the activation was inactive: -0.79%.

For `CCOP(=O)(Nc1ccccc1)OCC`, the activation is inactive: 0.49%.

Consider `Cc1cc(SC(NC(=O)c2ccc(F)cc2)C(Cl)(Cl)Cl)ncn1` (stereo not given), for which the activation is inactive: 0.73%.

With `O=[N+]([O-])c1cc([N+](=O)[O-])c(CCN2CCOCC2)c([N+](=O)[O-])c1`, the activation was inactive: -1.17%.

Take `CCN(N=Nc1nonc1N)c1nonc1N`: the activation was inactive: 0.15%.

Consider `O=C(Nc1cc([As](=O)(O)O)ccc1O)c1ccccc1`, for which the activation was inactive: -0.26%.

As to `O=[N+]([O-])c1ncn(CCn2ncnc2[N+](=O)[O-])n1`, the activation was inactive: 0.39%.

For the compound `CC(C)(C)C(=O)NC(Sc1ccncn1)C(Cl)(Cl)Cl` (stereo not given), the activation was inactive: 1.65%.

As for `O=[N+]([O-])c1cccc(NC2=NCC(CBr)S2)c1` (stereo not given), the activation was inactive: -0.36%.

As to `COc1ccc(C2=NCC(CBr)S2)cc1` (stereo not given), the activation is inactive: -0.67%.

Regarding `CCc1nc2c(n1)c1c(non1O)c1c2no[n+]1[O-]`, the activation was inactive: 8.41%.

For the compound `O=[N+]([O-])c1cc([N+](=O)[O-])c(CCNc2ccccc2)c([N+](=O)[O-])c1`, the activation is inactive: -1.02%.
